Experimental data published in patent US4548818A, “Composition and methods for the treatment of chronic obstructive airway disease and cardiac disease using 3-alkylxanthines” (priority 1978, dated 1985).

How the values were obtained:
[1] = test system: Guinea-pig heart; experiment: Isolated guinea-pig hearts (Langendorff), chronotropic potency; settings: Table II; positive chronotropic potency; theophylline = 1
Procedure: From the bled guinea-pigs, the hearts were immediately removed and perfused with oxygenated Krebs solution at 37° according to Langendorff. The heart was mounted in a thermostatically controlled organ bath (25 ml) containing Krebs solution. A saline-filled, open-end polyethylene catheter was inserted into the right ventricle through the pulmonary artery. The catheter was fixed to the pulmonary artery by a ligature just above the valvular plane. It was connected to a pressure transducer (P23 AC), making it possible to record changes in intraventricular pressure. From these, the contraction frequency was obtained. Drugs were given as single bolus injections into the perfusion solution.
(§1) The left column lists molar potency ratios for bronchodilatation between theophylline and various xanthine compounds. Toxic symptoms occuring before death in mice receiving constant rate infusion of drug i.v. are accounted for in the middle column. […] The far right column indicates cardiotonic activity as positive chronotropic potency.

[2] = test system: Guinea-pig trachea; experiment: Isolated guinea-pig trachea (relaxation of carbacholine-contracted tracheal muscle); settings: Table II; molar potency ratio from EC50 values (50% maximum response); theophylline = 1 by definition; >1 more potent than theophylline; carbacholine 0.1 μg/ml
Procedure: Guinea-pigs of both sexes, weighing between 150 and 250 g, were killed by a blow on the head and bled. The trachea was removed and cut spirally yielding one or two preparations. The tracheal preparations were mounted in organ baths containing Krebs solution maintained at 37° C. and bubbled with carbogen (95% O2 +5% CO2). Isometric tension reflecting the activity in circular tracheal muscle was recorded by means of a force displacement transducer. Initial tension was set at 0.5 g which was the approximate basal tension kept during the experiment. Evaluation of relaxant effects was done when the preparations had contracted to a stable tension by the addition of carbacholine 0.1 μg/ml to the bath. […] After washing out the drugs the trachea resumed its basal tone and was left to stabilize for at least 15 min. before the next drug evaluation was performed. Between two evaluations of theophylline the effect of the test drug was examined and its EC50 value was compared with the mean of the previous and following EC50 values of theophylline.
The left column lists molar potency ratios for bronchodilatation between theophylline and various xanthine compounds. […]
The guinea-pig trachea were prepared as was discribed previously. Isomeric tension reflecting the activity in circular tracheal muscle was recorded by a force displacement transducer.

[3] = mouse, in vivo, iv
Excerpt: as §1

Cc1nc2c([nH]1)c(=O)[nH]c(=O)n2CC(C)C [D 4169, 3,7-dihydro-8-methyl-3-(2-methylpropyl)-1H-purine-2,6-dione]
Guinea-Pig heart Potency ratios of theophylline, Chronotrop [1]: 4
Guinea-Pig trachea Potency rations of theophylline [2]: 10.3
Convulsion test mice i.v., Death [3]: 488.2 ± 8.1 mg/kg i.v.
